According to patent US11311540B2, “Increasing expression of interferon regulated genes with combinations of histone deacetylase inhibitors and immunomodulatory drugs” (ACETYLON PHARMACEUTICALS, INC., priority 2016, dated 2022):

Test system: H929
Assay: Expression profiling with Affymetrix PRIMEVIEW microarrays, number of differentially regulated genes
Type: cell-based, human
Description: The design of this experiment consisted of administering increasing doses of Compound A (0, 2, 3, 4 μM) in the presence or absence of a constant amount of pomalidomide (1 μM) and measuring changes in gene expression over time (up to 48 hours after cell treatment) using Affymetrix PRIMEVIEW™ chips (Affymetrix; Santa Clara, Calif.). The chip comprises a human gene expression array having more than 530,000 probes covering more than 36,000 transcripts and variants, which represent more than 20,000 genes mapped through RefSeq or via UniGene annotation. […] In the table, “A” indicates Compound A, and “Pom” indicates pomalidomide.

O=C(CCCCCCNC(=O)c1cnc(N(c2ccccc2)c2ccccc2)nc1)NO [Compound A, 2-(diphenylamino)-N-(7-(hydroxyamino)-7-oxoheptyl)pyrimidine-5-carboxamide]
number of genes with fold expression changes greater than 2 relative to vehicle: Down (Compound A 2 μM, 24 h): 506
number of genes with fold expression changes greater than 2 relative to vehicle: Total (Compound A 2 μM, 24 h): 826
number of genes with fold expression changes greater than 2 relative to vehicle: Up (Compound A 2 μM, 24 h): 320
number of genes with fold expression changes greater than 2 relative to vehicle: Down (Compound A 2 μM, 48 h): 139
number of genes with fold expression changes greater than 2 relative to vehicle: Total (Compound A 2 μM, 48 h): 504
number of genes with fold expression changes greater than 2 relative to vehicle: Up (Compound A 2 μM, 48 h): 365
number of genes with fold expression changes greater than 2 relative to vehicle: Down (Compound A 3 μM, 24 h): 883
number of genes with fold expression changes greater than 2 relative to vehicle: Total (Compound A 3 μM, 24 h): 1745
number of genes with fold expression changes greater than 2 relative to vehicle: Up (Compound A 3 μM, 24 h): 862
number of genes with fold expression changes greater than 2 relative to vehicle: Down (Compound A 3 μM, 48 h): 853
number of genes with fold expression changes greater than 2 relative to vehicle: Total (Compound A 3 μM, 48 h): 1317
number of genes with fold expression changes greater than 2 relative to vehicle: Up (Compound A 3 μM, 48 h): 464
number of genes with fold expression changes greater than 2 relative to vehicle: Down (Compound A 4 μM, 24 h): 1635
number of genes with fold expression changes greater than 2 relative to vehicle: Total (Compound A 4 μM, 24 h): 2645
number of genes with fold expression changes greater than 2 relative to vehicle: Up (Compound A 4 μM, 24 h): 1010
number of genes with fold expression changes greater than 2 relative to vehicle: Down (Compound A 4 μM, 48 h): 341
number of genes with fold expression changes greater than 2 relative to vehicle: Total (Compound A 4 μM, 48 h): 666
number of genes with fold expression changes greater than 2 relative to vehicle: Up (Compound A 4 μM, 48 h): 325
